Reference: FireProtDB (doi:10.1006/jmbi.2001.5104)
“And” between values parts separate entries of the source, which are not always exact repeats. Equal values may be shown once.

B1: Alpha-1-antitrypsin, P01009 (parent)
chain: MPSSVSWGILLLAGLCCLVPVSLAEDPQGDAAQKTDTSHHDQDHPTFNKITPNLAEFAFSLYRQLAHQSNSTNIFFSPVSIATAFAMLSLGTKADTHDEILEGLNFNLTEIPEAQIHEGFQELLRTLNQPDSQLQLTTGNGLFLSEGLKLVDKFLEDVKKLYHSEAFTVNFGDTEEAKKQINDYVEKGTQGKIVDLVKELDRDTVFALVNYIFFKGKWERPFEVKDTEEEDFHVDQVTTVKVPMMKRLGMFNIQHCKKLSSWVLLMKYLGNATAIFFLPDEGKLQHLENELTHDIITKFLENEDRRSASLHLPKLSITGTYDLKSVLGQLGITKVFSNGADLSGVTEEAPLKLSKAVHKAVLTIDEKGTEAAGAMFLEAIPMSIPPEVKFNKPFVFLMIEQNTKSPLFMGKVVNPTQK

Variants of: B1
Conditions: Homo sapiens, pH 7.8, Tris 50 mM, NaCl 50 mM, reversible: yes, structure 1QLP, whole UniProt chain shown; for denaturant m value / denaturant midpoint (higher = more stable) / unfolding free energy: 25 °C, transition: 3; for Tm / change of melting temperature, mutant - wild type (higher = more stable): Thermal

## W262F
GdnSCN, Fluorescence
  denaturant m value: 1.5 kcal/mol/M
  denaturant midpoint (higher = more stable): 1.8 M
  unfolding free energy: 2.8 kcal/mol
Urea, CD
  denaturant m value: 1.2 kcal/mol/M
  denaturant midpoint (higher = more stable): 5.8 M
  unfolding free energy: 6.95 kcal/mol
Urea, Fluorescence
  denaturant m value: 0.65 kcal/mol/M
  denaturant midpoint (higher = more stable): 5.3 M
  unfolding free energy: 3.44 kcal/mol
CD
  Tm: 57.9 °C
  change of melting temperature, mutant - wild type (higher = more stable): -1.7 °C

## W218F
GdnSCN, Fluorescence
  denaturant m value: 1.9 kcal/mol/M
  denaturant midpoint (higher = more stable): 0.8 M
  unfolding free energy: 1.6 kcal/mol
Urea, CD
  denaturant m value: 1.32 kcal/mol/M and 1.01 kcal/mol/M
  denaturant midpoint (higher = more stable): 2.95 M and 6.01 M
  unfolding free energy: 3.9 kcal/mol and 6.1 kcal/mol
Urea, Fluorescence
  denaturant m value: 1.5 kcal/mol/M
  denaturant midpoint (higher = more stable): 2.6 M
  unfolding free energy: 4 kcal/mol
CD
  Tm: 59.1 °C
  change of melting temperature, mutant - wild type (higher = more stable): -0.5 °C
